Protein sequences, listed by entry. Tags and fused reporters are not part of them. Residues count along the entry.
UniProt Q05941, 23-502 limits assumed: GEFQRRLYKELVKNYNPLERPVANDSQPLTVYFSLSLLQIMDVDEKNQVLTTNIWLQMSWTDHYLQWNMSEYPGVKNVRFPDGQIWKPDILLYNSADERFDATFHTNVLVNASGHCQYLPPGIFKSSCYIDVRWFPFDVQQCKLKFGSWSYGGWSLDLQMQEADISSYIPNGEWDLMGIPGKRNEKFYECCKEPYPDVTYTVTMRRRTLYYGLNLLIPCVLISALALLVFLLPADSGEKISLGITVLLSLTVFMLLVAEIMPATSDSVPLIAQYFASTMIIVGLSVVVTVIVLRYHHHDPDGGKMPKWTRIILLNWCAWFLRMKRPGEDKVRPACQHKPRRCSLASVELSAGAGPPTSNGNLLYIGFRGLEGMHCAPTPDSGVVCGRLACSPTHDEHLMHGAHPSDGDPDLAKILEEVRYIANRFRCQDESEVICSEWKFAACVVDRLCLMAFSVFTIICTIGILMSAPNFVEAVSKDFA

In ChEMBL document CHEMBL1146809, “(+)-3-[2-(Benzo[b]thiophen-2-yl)-2-oxoethyl]-1-azabicyclo[2.2.2]octane as potent agonists for the alpha7 nicotinic acetylcholine receptor” (Bioorg Med Chem Lett, 2004):

Biological target: Neuronal acetylcholine receptor subunit alpha-7 (Rattus norvegicus, UniProt Q05941)
Assay: Alpha 7 nicotinic acetylcholine receptor binding activity in PC12 cells
Assay type: cell-based
Conditions: pc-12

O=C(OC1CN2CCC1CC2)c1ccccc1 (stereo unspecified)
IC50: 2600 nM
